Amino acid sequences for entries named in this document (tags omitted). A change or cut given only in a name is not applied to a line headed by its entry.
UniProt P41144: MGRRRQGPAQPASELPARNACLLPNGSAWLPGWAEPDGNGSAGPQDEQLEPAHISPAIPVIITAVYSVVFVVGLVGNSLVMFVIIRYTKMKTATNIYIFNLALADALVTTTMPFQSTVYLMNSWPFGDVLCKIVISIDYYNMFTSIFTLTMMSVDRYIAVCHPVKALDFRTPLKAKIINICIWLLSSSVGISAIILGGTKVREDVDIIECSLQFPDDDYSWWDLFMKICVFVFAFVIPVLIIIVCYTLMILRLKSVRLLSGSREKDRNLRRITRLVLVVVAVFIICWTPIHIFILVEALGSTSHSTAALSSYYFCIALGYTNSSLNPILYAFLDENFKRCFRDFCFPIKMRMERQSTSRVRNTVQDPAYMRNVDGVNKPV

According to ChEMBL document CHEMBL1125862, “(1S)-1-(aminomethyl)-2-(arylacetyl)-1,2,3,4-tetrahydroisoquinoline and heterocycle-condensed tetrahydropyridine derivatives: members of a novel class of very potent kappa opioid analgesics” (J Med Chem, 1991):

What was measured:
Mus musculus [1] = assay: Phenyl-p-benzoquinone-induced abdominal constriction after subcutaneous administration in mouse (in vivo); settings: Abdomen
[2] = biological target: Kappa-type opioid receptor (Cavia porcellus, UniProt P41144); assay: Displacement of [3H]-BRL 52537 from opioid receptor kappa site in guinea pig
Mus musculus [3] = assay: In vivo antinociceptive activity in mouse tail flick test following p.o. administration.
Mus musculus [4] = assay: In vivo antinociceptive activity using mouse tail flick test, subcutaneous administration

Question: For `CN(C(=O)Cc1ccc(Cl)c(Cl)c1)C1CCCCC1N1CCCC1` (centres undefined), which ED50 (Mus musculus [1]) is on record?
Answer: 1.61 µmol/kg

Question: What about the Ki [2] of the same compound?
Answer: 2.2 nM

Question: And the ED50 (Mus musculus [3])?
Answer: 29.1 µmol/kg

Question: And the ED50 (Mus musculus [4])?
Answer: 5.78 µmol/kg
